Assay results as given in PMC3274752 (Cancer discovery, 2011).

Test system: NIH-3T3 cells expressing the L858R mutation in EGFR
Assay: Soft agar colony formation, NIH-3T3 expressing EGFR L858R

Cc1nc(Nc2ncc(C(=O)Nc3c(C)cccc3Cl)s2)cc(N2CCN(CCO)CC2)n1 [dasatinib]
colony formation in soft agar: inhibited the colony formation
